pEC50: −log10 of the molar value. Several values for one entry are separate records, joined by “and”; a condition that tells them apart may be missing. Equal values may be shown once. Read-outs that look alike come from different tables or passages of the source.
Tests used:
[1] = brain vs blood plasma; cited from earlier work
[2] = biological target: Electrophorus electricus (electric eel) AChE (Electrophorus electricus, UniProt O42275); assay: Ellman's assay: reactivation of paraoxon-inhibited electric eel AChE; details: read-out: EC50, AChE activity (reactivation), 10 U/mL eel AChE, mean±SEM
[3] = biological target: human AChE (Homo sapiens, UniProt P22303); assay: Ellman's assay: reactivation of paraoxon-ethyl-inhibited human AChE; details: read-out: EC50, normalized AChE activity (reactivation); 10 U/mL human AChE, 20 μM paraoxon-ethyl, 0-600 μM reactivator, pH 7.4; mean±SEM

The chains behind the UniProt entries cited, without tags or fusion partners. Where a name states a change or a piece, a line headed by the entry shows the natural chain unless it says otherwise.
UniProt O42275: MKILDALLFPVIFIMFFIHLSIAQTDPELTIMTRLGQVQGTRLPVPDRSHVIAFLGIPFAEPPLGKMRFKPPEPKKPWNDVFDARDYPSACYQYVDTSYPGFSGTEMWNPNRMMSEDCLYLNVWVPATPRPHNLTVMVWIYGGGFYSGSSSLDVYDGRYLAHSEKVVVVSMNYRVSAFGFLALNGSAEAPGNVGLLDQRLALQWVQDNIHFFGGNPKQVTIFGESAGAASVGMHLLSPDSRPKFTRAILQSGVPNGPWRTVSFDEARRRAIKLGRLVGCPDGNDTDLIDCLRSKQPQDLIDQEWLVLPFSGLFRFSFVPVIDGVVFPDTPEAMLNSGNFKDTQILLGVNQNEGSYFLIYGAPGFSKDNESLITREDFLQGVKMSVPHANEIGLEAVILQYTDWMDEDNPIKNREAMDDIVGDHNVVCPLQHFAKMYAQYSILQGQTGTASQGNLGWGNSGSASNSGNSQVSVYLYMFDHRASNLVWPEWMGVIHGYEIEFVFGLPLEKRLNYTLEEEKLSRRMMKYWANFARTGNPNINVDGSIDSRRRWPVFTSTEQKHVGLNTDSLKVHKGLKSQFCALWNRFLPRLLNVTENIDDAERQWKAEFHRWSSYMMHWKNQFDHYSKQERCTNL
UniProt P22303: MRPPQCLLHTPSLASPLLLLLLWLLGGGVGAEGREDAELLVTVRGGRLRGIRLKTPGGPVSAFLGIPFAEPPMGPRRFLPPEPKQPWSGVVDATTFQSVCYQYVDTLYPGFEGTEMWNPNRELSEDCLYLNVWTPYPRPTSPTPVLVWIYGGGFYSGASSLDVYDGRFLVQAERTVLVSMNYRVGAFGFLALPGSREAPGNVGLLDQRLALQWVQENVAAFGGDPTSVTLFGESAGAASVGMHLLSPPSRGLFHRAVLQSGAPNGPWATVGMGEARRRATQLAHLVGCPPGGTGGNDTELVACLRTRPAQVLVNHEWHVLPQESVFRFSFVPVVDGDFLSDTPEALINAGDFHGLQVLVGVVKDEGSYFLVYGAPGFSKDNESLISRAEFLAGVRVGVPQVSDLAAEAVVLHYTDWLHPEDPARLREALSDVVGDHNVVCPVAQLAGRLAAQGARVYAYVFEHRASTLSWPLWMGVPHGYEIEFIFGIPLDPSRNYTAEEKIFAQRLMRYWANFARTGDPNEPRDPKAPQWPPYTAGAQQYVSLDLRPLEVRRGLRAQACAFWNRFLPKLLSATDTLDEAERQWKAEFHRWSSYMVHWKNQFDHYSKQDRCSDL

2-pralidoxime
concentration within the brain as % of the blood plasma level [1]: 4-10% | pEC50 ([2]; 20 μM paraoxon-ethyl, at 20 minutes, pH 7.4): 4.80 | pEC50 ([2]; 20 μM paraoxon-ethyl, at 25 minutes, 1:1:88:10 isopropanol:DMSO:phosphate:Tris pH 7.4): 4.77 | pEC50 ([2]; 20 μM paraoxon-ethyl, at 25 minutes, 1:89:10 isopropanol:phosphate:Tris pH 7.4): 4.80 | pEC50 ([2]; 20 μM paraoxon-methyl, at 20 minutes, pH 7.4): 4.47 and 4.46 | pEC50 [3]: 4.52
